Details: 2% SnF2 in water, with or without pyrophosphate salt

stannous fluoride [2% stannous fluoride solution]
appearance of solution on preparation (clear, undissolved, precipitate): shows precipitate almost immediately

— patent publication US10292912B2, “Personal care compositions” (Colgate-Palmolive Company, priority 2015, dated 2019)
